The record followed here is patent US10894777B2, “TG2 inhibitor piperazine compounds and uses thereof” (UNIVERSITY OF OTTAWA, priority 2016, dated 2021).

The structures appear in SMILES notation.

Common to all, as to type: biochemical
The target in experiment [1] is T1, TG3a (Homo sapiens, UniProt Q08188).
T1 construct: purchased Zedira
T1 sequence (Q08188 2-467 limits assumed): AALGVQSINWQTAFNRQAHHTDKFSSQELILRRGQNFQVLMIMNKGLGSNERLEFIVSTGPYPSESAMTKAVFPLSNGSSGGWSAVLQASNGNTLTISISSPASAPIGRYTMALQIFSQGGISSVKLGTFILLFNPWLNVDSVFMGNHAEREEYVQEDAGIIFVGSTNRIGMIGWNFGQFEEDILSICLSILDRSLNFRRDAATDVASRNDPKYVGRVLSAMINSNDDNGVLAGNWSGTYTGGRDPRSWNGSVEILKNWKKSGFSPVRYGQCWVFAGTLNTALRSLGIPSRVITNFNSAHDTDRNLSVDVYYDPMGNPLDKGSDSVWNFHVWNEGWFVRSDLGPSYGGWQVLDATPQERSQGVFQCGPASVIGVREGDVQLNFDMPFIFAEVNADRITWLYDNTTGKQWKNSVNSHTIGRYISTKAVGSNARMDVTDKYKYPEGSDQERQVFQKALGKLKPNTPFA
T1 sequence (Q08188 468-693 partner limits assumed): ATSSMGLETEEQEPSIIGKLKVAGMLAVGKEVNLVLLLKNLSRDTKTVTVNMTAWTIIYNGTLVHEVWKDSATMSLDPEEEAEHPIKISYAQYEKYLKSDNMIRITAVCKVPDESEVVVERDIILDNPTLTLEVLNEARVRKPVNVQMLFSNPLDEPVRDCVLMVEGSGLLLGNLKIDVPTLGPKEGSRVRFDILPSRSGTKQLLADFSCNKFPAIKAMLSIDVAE
Briefly: Fluorescence isopeptidase activity assay (A101 probe), TG3a. The following applies: Table 9; Kitz and Wilson conditions. As to the method: (§1) Selectivity of certain irreversible inhibitors over other members of the transglutaminase family was assessed. Specifically, two efficient irreversible inhibitors, VA4 and NC9, were tested against four therapeutically relevant isoforms of human transglutaminase: FXIIIa, hTG3, hTG1 and hTG6. Inhibitors were tested using a continuous colorimetric assay (Leblanc, A. et al., Biochemistry (2001), 40 (28): 8335-8342) for hTG1 and hTG6 and a commercially available continuous fluorescent assay that utilizes a peptidic FRET quenched substrate (Oertel, K. et al., Anal. Biochem. (2007), 367 (2): 152-158; Király, R. et al., Amino Acids (2016), 48 (1): 31-40) for the other transglutaminases, FXIIIa and hTG3. The rate constant of enzyme inactivation (kobs) for a specific concentration of inhibitor was obtained using Kitz and Wilson conditions (Kitz, R. et al., J. Biol. Chem. (1962), 237: 3245-49). Inhibitor concentrations were adjusted to account for competition with substrates in each enzymatic reaction. […]
(§2) Fluorescence isopeptidase activity assay. The isopeptidase activity of pre-activated TG3a and FXIIIa (purchased from Zedira) was measured via a fluorescence-based assay (Király, R. et al., Amino Acids (2016), 48 (1): 31-40) using the commercially available peptidic FRET quenched probe A101 from Zedira. […] The reaction was monitored at 25° C. using a BioTek Synergy 4 plate reader (Ex/Em: 318/413 nm).

Experiment [2] concerns the target T2, hTG1 (Homo sapiens, UniProt P22735).
T2 sequence (P22735 1-817): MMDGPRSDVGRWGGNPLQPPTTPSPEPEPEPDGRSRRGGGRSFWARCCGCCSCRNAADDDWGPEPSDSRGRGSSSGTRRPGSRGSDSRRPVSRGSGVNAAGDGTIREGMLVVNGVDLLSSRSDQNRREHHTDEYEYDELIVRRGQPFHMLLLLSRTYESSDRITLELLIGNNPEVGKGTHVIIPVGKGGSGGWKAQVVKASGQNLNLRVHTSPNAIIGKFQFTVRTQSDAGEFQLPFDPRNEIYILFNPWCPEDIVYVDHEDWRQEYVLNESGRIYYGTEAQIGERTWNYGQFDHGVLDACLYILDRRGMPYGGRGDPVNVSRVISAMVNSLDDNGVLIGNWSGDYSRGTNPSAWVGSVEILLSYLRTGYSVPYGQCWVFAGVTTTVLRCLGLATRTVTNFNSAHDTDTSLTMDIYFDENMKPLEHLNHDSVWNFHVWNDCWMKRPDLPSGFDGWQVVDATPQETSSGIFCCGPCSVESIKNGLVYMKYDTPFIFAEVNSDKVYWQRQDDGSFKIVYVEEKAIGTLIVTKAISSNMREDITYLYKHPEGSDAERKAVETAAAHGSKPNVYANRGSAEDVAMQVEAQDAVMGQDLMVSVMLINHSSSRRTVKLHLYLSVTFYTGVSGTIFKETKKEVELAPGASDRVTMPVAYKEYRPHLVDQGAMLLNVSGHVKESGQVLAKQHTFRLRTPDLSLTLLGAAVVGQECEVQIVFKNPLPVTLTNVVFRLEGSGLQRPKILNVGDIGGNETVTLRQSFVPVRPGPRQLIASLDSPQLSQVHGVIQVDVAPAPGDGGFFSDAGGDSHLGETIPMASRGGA
The experiment is described as follows: Colorimetric transamidase activity assay (AL5 substrate), hTG1. As to the method: Selectivity of certain irreversible inhibitors over other members of the transglutaminase family was assessed. Specifically, two efficient irreversible inhibitors, VA4 and NC9, were tested against four therapeutically relevant isoforms of human transglutaminase: FXIIIa, hTG3, hTG1 and hTG6. Inhibitors were tested using a continuous colorimetric assay (Leblanc, A. et al., Biochemistry (2001), 40 (28): 8335-8342) for hTG1 and hTG6 and a commercially available continuous fluorescent assay that utilizes a peptidic FRET quenched substrate (Oertel, K. et al., Anal. Biochem. (2007), 367 (2): 152-158; Király, R. et al., Amino Acids (2016), 48 (1): 31-40) for the other transglutaminases, FXIIIa and hTG3. The rate constant of enzyme inactivation (kobs) for a specific concentration of inhibitor was obtained using Kitz and Wilson conditions (Kitz, R. et al., J. Biol. Chem. (1962), 237: 3245-49). Inhibitor concentrations were adjusted to account for competition with substrates in each enzymatic reaction. […] In addition, VA4 illustrated a lower reactivity towards other transglutaminase isozymes compared to NC9.
(§3) In Vitro Assays. Colorimetric transamidase activity assay.

The target in experiment [3] is T3, TG2 (Homo sapiens, UniProt P21980).
T3 sequence (P21980 1-687): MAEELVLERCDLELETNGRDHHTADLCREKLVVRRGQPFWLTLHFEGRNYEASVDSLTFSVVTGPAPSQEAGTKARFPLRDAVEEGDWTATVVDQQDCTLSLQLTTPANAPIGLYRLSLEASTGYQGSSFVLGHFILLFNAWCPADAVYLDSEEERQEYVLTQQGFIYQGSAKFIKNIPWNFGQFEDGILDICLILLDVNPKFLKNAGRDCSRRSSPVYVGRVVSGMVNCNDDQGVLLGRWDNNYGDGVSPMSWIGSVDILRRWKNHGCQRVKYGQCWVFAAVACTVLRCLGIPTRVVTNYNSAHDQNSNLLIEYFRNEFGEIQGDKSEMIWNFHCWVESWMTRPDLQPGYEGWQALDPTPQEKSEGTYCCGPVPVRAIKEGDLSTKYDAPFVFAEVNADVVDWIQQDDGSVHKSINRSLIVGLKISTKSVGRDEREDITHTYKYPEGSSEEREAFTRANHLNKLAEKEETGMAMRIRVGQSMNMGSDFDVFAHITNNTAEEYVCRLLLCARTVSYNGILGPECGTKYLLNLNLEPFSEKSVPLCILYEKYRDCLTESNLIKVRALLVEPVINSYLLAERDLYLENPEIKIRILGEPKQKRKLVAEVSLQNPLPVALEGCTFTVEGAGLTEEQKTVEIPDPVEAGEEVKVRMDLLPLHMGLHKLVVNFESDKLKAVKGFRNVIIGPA
Briefly: Colorimetric transamidase activity assay (AL5 substrate), hTG2.
Text: as §3

Experiment [4] has as its target T4, FXIIIa (Homo sapiens, UniProt P00488).
T4 construct: purchased Zedira
T4 sequence (P00488 39-732 limits assumed): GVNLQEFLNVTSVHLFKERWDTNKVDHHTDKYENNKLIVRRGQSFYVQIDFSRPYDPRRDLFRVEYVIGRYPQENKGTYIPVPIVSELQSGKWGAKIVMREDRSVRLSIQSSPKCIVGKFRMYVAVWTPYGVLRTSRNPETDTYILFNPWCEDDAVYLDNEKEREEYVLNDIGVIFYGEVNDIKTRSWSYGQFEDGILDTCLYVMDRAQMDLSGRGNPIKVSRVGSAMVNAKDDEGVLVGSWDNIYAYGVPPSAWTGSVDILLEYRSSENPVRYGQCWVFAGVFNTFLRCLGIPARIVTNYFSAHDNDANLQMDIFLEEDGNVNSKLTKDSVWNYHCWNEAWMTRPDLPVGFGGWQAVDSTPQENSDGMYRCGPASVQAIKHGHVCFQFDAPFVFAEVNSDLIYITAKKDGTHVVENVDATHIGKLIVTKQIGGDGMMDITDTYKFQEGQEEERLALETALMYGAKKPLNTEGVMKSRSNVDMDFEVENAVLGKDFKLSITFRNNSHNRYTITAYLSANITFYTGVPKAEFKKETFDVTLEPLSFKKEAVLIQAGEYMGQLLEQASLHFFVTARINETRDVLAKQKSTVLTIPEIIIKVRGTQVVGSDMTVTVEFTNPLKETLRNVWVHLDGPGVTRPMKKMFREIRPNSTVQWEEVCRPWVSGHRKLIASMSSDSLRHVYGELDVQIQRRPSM
The experiment is described as follows: Fluorescence isopeptidase activity assay (A101 probe), FXIIIa. The conditions noted are these: Table 9; Kitz and Wilson conditions. As to the method: as §1, §2

In experiment [5] the target is T3, TG2. Briefly: Kinetic inactivation of purified recombinant human TG2, continuous spectrophotometric activity assay (Examples 3, 10). Further details: made in house. The following applies: Table 4. As to the method:
Kinetic studies were carried out in vitro, using purified recombinant human TG2 (Roy, I. et al., Protein Expr. Purif. 87: 41-46, 2013) and a direct, continuous spectrophotometric activity assay (Leblanc, A. et al., Biochemistry 40: 8335-8342, 2001).
Kinetics. Kinetic runs were performed at 25° C. in 100 mM MOPS buffer (pH 7.0) containing 3 mM CaCl2 and 50 μM EDTA. […] Stock solutions of the substrate and inhibitors were prepared in DMF such that the final concentration of this co-solvent was constant at 10% v/v. Reactions were initiated with the addition of enzyme with an activity of approximately 0.05 U/mL. Kinetic evaluation was carried out by the method of Stone and Hofsteenge (Stone, S. R. and Hofsteenge, J., Biochem. J. 230: 497-502, 1985). […] Observed first-order rate constants of inactivation were determined from non-linear regression, to a mono-exponential model. These rate constants were in turn fit to equation 1 by non-linear regression, providing the kinetic parameters
Kinetic parameters were determined as described above.

What is called kinact is the rate constant of inactivation at saturating inhibitor. As to `C=CC(=O)NCCCC[C@H](NC(=O)OCc1ccccc1)C(=O)N1CCN(S(=O)(=O)c2cccc3c(N(C)C)cccc23)CC1` [VA4, (S)-benzyl(6-acrylamido-1-(4-((5-(dimethylamino)naphthalen-1-yl)sulfonyl)piperazin-1-yl)-1-oxohexan-2-yl)carbamate], the “kobs (10^−3 min^−1), TG3a” value in experiment [1] is 0.65 ± 0.21 10^−3 min^−1. Moreover, the “kobs (10^−3 min^−1), TG1” value in experiment [2] (Table 9, Kitz and Wilson conditions) is on record as 8.27 ± 0.76 10^−3 min^−1. Besides, the “less reactive with hTG1 compared to hTG2” value in experiment [2] (from kobs) amounted to 48 fold. Moreover, the kinact in experiment [3] (Table 5) is 0.0233 s⁻¹. In experiment [3] (Table 9, Kitz and Wilson conditions, inhibitor concentration adjusted for competition with substrate), the “kobs (10^−3 min^−1), TG2” value is 394 ± 37 10^−3 min^−1. In experiment [4], the “kobs (10^−3 min^−1), FXIIIa” value is given as 4.08 ± 0.77 10^−3 min^−1.

Consider `C=CC(=O)NCCCC[C@H](NC(=O)OCc1ccccc1)C(=O)N1CCN(C(=O)c2cccc3ccccc23)CC1` [AA9, (S)-benzyl (1-(4-(1-naphthoyl)piperazin-1-yl)-6-acrylamido-1-oxohexan-2-yl)carbamate], for which the kinact in experiment [3] (Table 8) and in experiment [5] was 0.015 s⁻¹ each time.
